Data as given in patent US12180508B2, “Method of preparing in vitro-matured human intestinal organoids and use thereof” (KOREA RESEARCH INSTITUTE OF BIOSCIENCE AND BIOTECHNOLOGY, priority 2018, dated 2024).

Tests used:
[1] = system: STAT3 (Y705); assay: Human phospho-kinase array of IL-2-treated hIOs; assay type: cell-based; settings: hIOs treated with 1 ng/ml rhIL-2 vs non-treated hIOs
Description: Protein phosphorylation was quantified using a Proteome Profiler Human Phospho-Kinase Array Kit (ARY003, R&D Systems) according to the manufacturer's instructions and a known method (Human molecular genetics 23, 1802-1816 (2014)). Protein extracts were prepared from hIOs which were co-cultured with human T lymphocytes and treated with 1 ng/ml rhIL-2. Non-treated hIOs were used as a control group. The phospho-kinase array membranes were blocked, incubated with 200 μg of total protein from hIOs overnight at 4° C., and then incubated with cocktails of biotinylated detection antibodies for 2 hr at room temperature. Signal was detected with an ECL Plus Western Blotting Detection System (GE Healthcare, Buckinghamshire, UK), and phosphorylated kinase levels were quantified by densitometry with Image Gauge software (Fuji Photo Film GMBH).

[2] = system: hPSC-derived hIOs; assay: Growth / size (surface area, budding) of hPSC-derived hIOs; assay type: cell-based, human; settings: IL-2 at 1 ng/ml to 4 ng/ml
Description: To assess the effect of interleukin 2 (hereinafter, referred to as IL-2) on hIOs, prepared rhIL-2 (R&D Systems) was added daily to hIO medium at a concentration of 1 ng/ml (approximately 13 U/ml). Further, to inhibit IL-2 signaling, hIOs were treated with 1 μg/ml of anti-IL-2Rα monoclonal antibody (R&D Systems). To block IL-2 downstream signal transduction, a mTOR inhibitor Rapamycin (10 nM, Sigma-Aldrich), a STAT3 inhibitor S31-201 (10 μM, Sigma-Aldrich), or Stattic (1 μM, Sigma-Aldrich) was added. To estimate the size of hIOs, surface areas of horizontal cross-sections of hIOs were measured.

[3] = system: hIOs; assay: Microarray gene expression profiling of hIOs versus hSI; assay type: cell-based, human
Description: Microarray experiments were conducted according to the manufacturer's instructions using a low RNA input linear amplification kit, cRNA cleanup module, and one-color (Cy3) Whole Human Genome Microarray 4X44K (Agilent. Technology, Santa Clara, CA) by a known method. Gene expression data were processed using GeneSpring software (Agilent). The data were normalized using global scale normalization. Differentially expressed genes were selected on the basis of a fold-change greater than 2.
Microarray data analysis was performed as described in Experimental Example 9. Hierarchical clustering and the heat map were generated using MeV v 4.9.0 software. Gene functions were annotated using GeneCard database (genecards.org). Other bioinformatic analyses were performed using IPA analysis software (Ingenuity systems, Redwood City, CA, USA), PANTHER (Protein ANalysis THrough Evolutionary Relationships, http://www.pantherdb.org) database, and DAVID Bioinformatics Resources 6.7 (david.abcc.ncifcrf.gov/). Differentially phosphorylated proteins were used for analysis and visualization of functional interaction networks. Core pathways in the network were further analyzed using Reactome (Reactome FI software, Version 5.0.0 beta, apps.cytoscape.org/apps/reactomefis). The functionally grouped gene ontology (GO)/pathway was analyzed using Cytoscape software platform (version 3.3.0, http://www.cytoscape.org/what_is_cytoscape.html) with ClueGO plug-in (Version 2.2.5, apps.cytoscape.org/apps/cluego).

[4] = system: hIOs; assay: GIP hormone secretion assay (ELISA) in hIO culture supernatant; assay type: cell-based, human; settings: co-cultured or IL-2-treated hIOs, 48 hr supernatant
Description: Secretion of gastric inhibitory polypeptide (GIP) hormone expressed by enteroendocrine cells was examined to examine functionality of mature enteroendocrine cells. First, 15 organoids under different conditions were placed on culture plates, and washed with PBS five times, and hIO culture medium was added, followed by incubation for 48 hr at 37° C. Thereafter, the supernatant was harvested, and quantity of GIP in the culture was measured using a total GIP ELISA kit (Merckmillopore). Then, gDNA of the total amount of hIOs used in the experiment was extracted using a DNeasy kit (Qiagen), and the quantity of GIP hormone relative to DNA was calculated and schematized.

[5] = system: hIOs; assay: qPCR of intestinal maturation markers in hIOs; assay type: cell-based, human; settings: co-cultured or IL-2-treated hIOs
Description: Total RNA was extracted from cells using an RNeasy Kit (Qiagen), and reverse-transcribed using a Superscript III cDNA synthesis kit (Invitrogen). qRT-PCR was performed by a method disclosed in a 7500 Fast Real-time PCR system (Applied Biosystems, Foster City, CA, USA) (Cho et al., Oncotarget 6, 23837-23844, 2015). All experiments were performed in triplicate, and CT value of each target gene was calculated using a software provided by the manufacturer. Nucleotide sequences of the used primers are as in Table 1.

phosphorylation of STAT3 (Y705), increase compared with the control [1]: 3.3 fold
share of 40 enzymes and transporters upregulated ([3]; IL-2-treated hIOs compared with control hIOs): 62.5 S
number of 40 enzymes and transporters upregulated ([3]; IL-2-treated hIOs compared with control hIOs, at least 2-fold): 25
Substance: IL-2: recombinant human interleukin 2 (R&D Systems) added daily to hIO medium
size of hIO [2]: significantly increased
genes shifted towards the profile of hSI ([3]; IL-2-treated hIOs, two-fold cut-off): 49.8
amount of secreted GIP, increase compared with the control [4]: about 45 fold
expression levels of DEFA5, DEFA6, LYZ, DPP4 and LCT [5]: upregulated
